From PubChem BioAssay AID651747 (Johns Hopkins Ion Channel Center, 2012)
The list shows a part of the results, in another mix than the full data. Calls of active or inactive are those of the source.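 Rule for the calls: active = thallium flux ratio, averaged over three wells, more than 5 SD below the buffer control mean; inactive = the rest.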

assay: nonspecific thallium influx blockers, KCNK3-free cells – cell-based, non-induced KCNK3 line, FluxOR thallium, triplicate, counter-screen for KCNK3 inhibitor project, primary screen (AID 651747); conditions: non-induced KCNK3 parental cells, FluxOR thallium flux; at 10 µM;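 note: host cells are CHO cells without KCNK3 induction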

SMILES | outcome
CC(C)(C)OC(=O)N1CCC(N(C(=O)c2ccccc2)c2ccc(F)cc2)CC1 | inactive
Cc1cc(C)cc(N(C(=O)c2ccccc2)C2CCN(C(=O)OC(C)(C)C)CC2)c1 | inactive
CC(C)(C)OC(=O)N1CCC(N(C(=O)c2ccccc2)c2ccc(Cl)cc2)CC1 | inactive
